Source: PubChem BioAssay AID748 (Sanford-Burnham Center for Chemical Genomics, 2007)
Only a part is listed here, and it is no random draw. Entries with a potency or affinity are not part of this list. Calls of active or inactive are those of the source.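 How the source made its calls: active means displacement above 50% at 20 µM plus a fluorescence interference ratio under 1.5; inactive means the rest.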

target: Bcl-2-like protein 10 (Homo sapiens) (UniProt Q9HD36); test: displacers of TR3 peptide from Bcl-B, primary screen, selectivity assay for Bfl-1 inhibitor project, biochemical, fluorescence polarization, FITC-TR3 peptide (AID 748); details: FP displacement of FITC-TR3 peptide from Bcl-B; at 20 µM; active compounds read high;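 further: plate controls were wells without compound for no effect and wells lacking Bcl-B protein for full effect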

Row | SMILES | displacement
1 | CP(=S)(Nn1cnnc1)Oc1ccccc1 (configuration not stated) | inactive: 1.8%
2 | CP(=O)(Nc1ccccn1)Oc1ccc(Cl)cc1 (configuration not stated) | inactive: -2.3%
3 | CCOP(C)(=S)SCC(=O)NC(C)C(=O)O (configuration not stated) | inactive: -4.2%
4 | CP(=O)(NC(=O)Nc1ccccc1)Oc1ccccc1 (configuration not stated) | inactive: 10.5%
5 | COc1ccc(OP(C)(=O)Nc2cccc(F)c2)cc1 (configuration not stated) | inactive: -12.4%
6 | COc1ccccc1OP(C)(=O)Nc1ccc(C)cc1 (configuration not stated) | inactive: -1.2%
7 | Cc1ccc(NP(C)(=O)Oc2ccccc2)c(C)c1 (configuration not stated) | inactive: -1.5%
8 | Cc1cc(C)cc(OP(C)(=O)Nc2ccccn2)c1 (configuration not stated) | inactive: -3.8%
9 | Cc1ccc(C)c(NP(C)(=O)Oc2ccccc2)c1 (configuration not stated) | inactive: -7.1%
10 | Cc1cc(C)cc(OP(C)(=O)Nc2ccc(C)cc2C)c1 (configuration not stated) | inactive: -16.2%
11 | Cc1nc2ccc3ccccc3c2s1.O=[N+]([O-])c1cc([N+](=O)[O-])c(O)c([N+](=O)[O-])c1 | inactive: -7.2%
12 | COc1ccccc1OP(C)(=O)Nc1c(C)cccc1C (configuration not stated) | inactive: -6.6%
13 | CN(C)CCOC(=O)C(O)(c1ccccc1)C1CCCCC1 (configuration not stated) | inactive: 3.8%
14 | COc1ccc(OP(C)(=O)Nc2cccc(Br)c2)cc1 (configuration not stated) | inactive: -9.9%
15 | Cc1ccccc1NP(C)(=O)Nc1ccccc1C | inactive: -0.4%
16 | CCOP(C)(=S)SCC(=O)NC(C)(CC)C(=O)O (configuration not stated) | inactive: -0.8%

Row | SMILES | displacement
17 | CP(=O)(Nc1ccccc1F)Oc1ccccc1 (configuration not stated) | inactive: -0.9%
18 | CP(=O)(Nc1ccccc1)Oc1ccc(F)cc1 (configuration not stated) | inactive: 2%
19 | Cc1nc2ccc3ccccc3c2o1.O=[N+]([O-])c1cc([N+](=O)[O-])c(O)c([N+](=O)[O-])c1 | inactive: -1.6%
20 | COc1ccccc1OP(C)(=O)Nc1ccc(C)c(C)c1 (configuration not stated) | inactive: 9.9%
21 | CCc1ccc(OP(C)(=O)O)cc1 | inactive: -9.8%
22 | CP(=O)(Nc1ccccn1)Oc1ccccc1 (configuration not stated) | inactive: -5.4%
23 | COc1ccccc1OP(C)(=O)Nc1ccc(C)cc1C (configuration not stated) | inactive: -8.7%
24 | Cc1c(NP(C)(=O)Oc2ccc(C(C)C)cc2)c(=O)n(-c2ccccc2)n1C (configuration not stated) | inactive: 0.8%
25 | CN(C)CCOC(=O)C(O)(c1ccccc1)C1CCCC1 (configuration not stated) | inactive: 0.2%
26 | COc1ccc(OP(C)(=O)Nc2ccccn2)cc1 (configuration not stated) | inactive: -0.6%
27 | CP(=O)(Nc1ccc(Cl)cc1)Oc1ccc(F)cc1 (configuration not stated) | inactive: -7%
28 | CC(C)(C)c1ccc(OP(C)(=O)O)cc1 | inactive: 2.6%
29 | CP(=O)(Oc1ccccc1)N1CCOC1=O (configuration not stated) | inactive: 0.1%
30 | COc1ccccc1OP(C)(=O)Nc1c(C)n(C)n(-c2ccccc2)c1=O (configuration not stated) | inactive: -3.2%
31 | CCN(CC)CC(O)COC(=O)C(O)(c1ccccc1)C1CCCCC1 (configuration not stated) | inactive: -7.5%
32 | CP(=O)(OC12CC3CC(CC(C3)C1)C2)OC12CC3CC(CC(C3)C1)C2 | inactive: -3%
